Consider 1 substance from patent US8268635B2, “Methods of identifying agents that selectively activate p38 and/or NKkB signaling” (priority 2006, dated 2012).

Experiment [1] relates to ERK1/ERK2. Kind of experiment: ERK1/ERK2 dual phosphorylation in HUVEC (western blot). Type of experiment: cell-based, human. Conditions: 15 min; TNF 100 U/ml, TNF70-80 10 μM. The method, then: The cells were lysed, and JNK activity was assayed using GST-jun (1-79) as a substrate. The data is presented as means+−sem of 3 experiments. […] The cells were lysed and the level of dual-phosphorylated ERK1/ERK2 was assessed by western blot analysis using the anti-ACTIVE ERK antibody (top panel). The blot was stripped and re-probed with an anti-ERK2 antibody (lower panel) to compare the level of ERK2 protein. The results are representative of 3 experiments, each conducted with cells from a different cord. […] The level of myelin basic protein phosphorylation was quantitated by an Instant Imager. Results are presented as the means+−sem of 3 experiments. Statistical analysis: significant difference between control and stimulated cells, *p<0.05.
Fresh human umbilical cords were obtained from consenting mothers according to the institution's guidelines on human ethics. […]
The cells were lysed in 200 μl of buffer A (20 mM HEPES, pH 7.4, 0.5% (v/v) Nonidet P-40, 100 mM NaCl, 1 mM EDTA, 2 mM Na3VO4, 2 mM dithiotbreitol, 1 mM phenylmethylsulfonyl fluoride, and 10 μg/ml leupeptin, aprotonin, pepstatin A, and benzamidine) for 2 h at 4° C. with constant mixing (20) After centrifugation (12,000 g×5 min), the supernatants were collected and the protein content of the lysates was determined by Lowry's method of protein determination. […]
(In western blotting, separated proteins are transferred to a membrane and probed.)

In experiment [2] the test system is GCKR/GLK. Put plainly: GCKR/GLK activity in adherent neutrophils. In kind it is cell-based, human. The procedure:
GCKR was immunoprecipitated from cell lysates and activity assayed using myelin basic protein (MBP) as the substrate. […] Results shown are the means+−sem of 3 experiments; (c) Expression of ASK-1 in HEK293T cells and neutrophils as determined by Western blot analysis of cell lysates. […] Activation of ASK-1 was determined by kinase autophosphorylation. A representative digital radiogram from 3 experiments is shown.
KHS (hereon referred to as “GCKR”) activity was assayed as described previously using myelin basic protein as a substrate (Shi, C. S., Leonardi, A., Kyriakis, J., Siebenlist, U., and Kerhl, J. H. (1999) J. Immunol. 163: 3279-3285). ASK-1 activation was determined in immunoprecipitates of ASK-1 by autophosphorylation (Kyriakis, J. M., and Auruch, J. (2001) Physiol. Rev. 81: 807-869). p38 and ERK activities were determined as described using myelin basic protein as a substrate (Hii, C. S., Huang, Z. H., Bilney, A., Costabile, M., Murray, A. W., Rathjen, D. A., Der, C. J., and Ferrante, A. (1998) J. Biol. Chem. 273: 19277-19282). […] Phosphorylated ASK-1, myelin basic protein and GST-jun (1-79) were fractionated on 8, 16 and 12% SDS polyacrylamide gels, respectively, and the bands were detected and radioactivity determined using an Instant Imager (Packard Instruments, Canberra, Australia). […]

As to “TNF: Human recombinant TNF produced by Genentech, Inc.”, the “dual phosphorylation of the ERKs in HUVEC” value in experiment [1] is on record as “stimulated the dual phosphorylation of the ERKs”. In addition, the “GCKR activity in neutrophils pre-adhered to non-coated surfaces” value in experiment [2] (non-coated surfaces, data not shown) is reported as “failed to stimulate the activity of either GCKR or JNK”. Besides, in experiment [2] (plasma-coated dishes, 15 min, TNF 1000 U/ml, TNF70-80 10 μM), the “GCKR/GLK activity in adherent neutrophils” value was “stimulated the activity of GCKR/GLK”.
